The record followed here is ChEMBL document CHEMBL1136550, “Discovery of orally bioavailable NK1 receptor antagonists” (Bioorg Med Chem Lett, 2003).

Chains of the proteins cited; added tags and fusions are not shown.
UniProt P25103, whole entry: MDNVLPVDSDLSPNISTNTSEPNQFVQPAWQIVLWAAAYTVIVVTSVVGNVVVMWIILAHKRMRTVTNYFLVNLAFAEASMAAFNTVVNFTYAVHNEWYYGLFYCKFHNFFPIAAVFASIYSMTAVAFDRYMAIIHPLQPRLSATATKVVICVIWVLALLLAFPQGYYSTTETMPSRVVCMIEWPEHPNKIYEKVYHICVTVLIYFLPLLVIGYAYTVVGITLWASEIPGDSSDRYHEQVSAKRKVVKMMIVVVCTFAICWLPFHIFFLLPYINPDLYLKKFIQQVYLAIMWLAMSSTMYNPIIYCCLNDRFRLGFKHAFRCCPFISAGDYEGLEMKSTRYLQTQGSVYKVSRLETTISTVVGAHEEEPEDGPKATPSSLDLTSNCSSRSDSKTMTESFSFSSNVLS

For this assay, the target named is Substance-P receptor (Homo sapiens, UniProt P25103). Put plainly: Displacement of [3H]-substance P from human NK1 receptor expressed in CHO cells. The class given is cell-based.

In general, Ki refers to the equilibrium dissociation constant of an inhibitor or competing ligand from its target. Lower therefore signals tighter binding. For `C[C@H](OC[C@H](c1ccccc1)N1CCN(CCOCC(=O)O)CC1)c1cc(C(F)(F)F)cc(C(F)(F)F)c1`, the Ki was 1.26 nM.
